{"source": "ChEMBL document CHEMBL3091310", "about": "“Pseudo-cyclization through intramolecular hydrogen bond enables discovery of pyridine substituted pyrimidines as new Mer kinase inhibitors” (J Med Chem, 2013)", "target": "T1, Tyrosine-protein kinase receptor TYRO3 (Homo sapiens, UniProt Q06418)", "T1 sequence (Q06418 whole entry)": "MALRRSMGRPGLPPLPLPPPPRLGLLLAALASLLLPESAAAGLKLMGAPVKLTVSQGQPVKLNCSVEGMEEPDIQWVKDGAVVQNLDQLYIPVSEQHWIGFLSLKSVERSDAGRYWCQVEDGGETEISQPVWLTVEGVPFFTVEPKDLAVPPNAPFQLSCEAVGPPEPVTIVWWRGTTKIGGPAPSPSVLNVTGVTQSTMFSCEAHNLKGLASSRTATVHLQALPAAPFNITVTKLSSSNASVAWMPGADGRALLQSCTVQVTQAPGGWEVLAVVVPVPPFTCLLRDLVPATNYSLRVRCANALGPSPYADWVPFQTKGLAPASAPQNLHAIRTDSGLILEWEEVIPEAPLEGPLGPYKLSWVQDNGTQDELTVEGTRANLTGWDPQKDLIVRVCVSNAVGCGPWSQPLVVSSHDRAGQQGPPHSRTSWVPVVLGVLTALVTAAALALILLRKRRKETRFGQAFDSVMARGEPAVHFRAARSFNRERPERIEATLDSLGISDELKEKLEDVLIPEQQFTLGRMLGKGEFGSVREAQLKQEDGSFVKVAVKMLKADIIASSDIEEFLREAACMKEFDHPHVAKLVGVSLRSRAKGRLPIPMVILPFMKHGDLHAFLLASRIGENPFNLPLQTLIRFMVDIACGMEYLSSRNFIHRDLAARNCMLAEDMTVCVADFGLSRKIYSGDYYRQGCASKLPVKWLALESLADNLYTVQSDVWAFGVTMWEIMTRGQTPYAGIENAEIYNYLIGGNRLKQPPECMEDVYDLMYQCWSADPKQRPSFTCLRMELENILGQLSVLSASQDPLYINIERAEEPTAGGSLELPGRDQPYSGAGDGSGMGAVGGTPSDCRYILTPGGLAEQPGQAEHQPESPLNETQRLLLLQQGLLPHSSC"}
{"smiles": "CCCCNc1ncc(-c2cccc(CN3CCOCC3)n2)c(N[C@H]2CC[C@H](O)CC2)n1", "values": [{"measurement": "IC50", "value": 0.39, "unit": "µM"}]}
